In the library only some 0.78% were active in any assay of this set; here they are far more common.
IL-2 act = activates IL-2 in a cell-based reporter assay. IL-2 activation reporter assay, cell-based qHTS; stimulated with anti-CD3/CD4/CD28 beads; in transgenic mouse T cells. activation, % (series mostly up to about 46 µM). hit rate 0.065% among 360,000; in the data active = activation above about 50%; inconclusive = mostly about 30% to 49%
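EGFP and DsRed fluorescence is measured by plate cytometry in unstimulated transgenic mouse T cells exposed to compound for 60 minutes, then stimulated 18 hours at 37 degrees C with anti-CD3/anti-CD4 beads plus anti-CD28.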
RXFP1 antagonist = antagonists of human relaxin receptor RXFP1 | activity change, negative = inhibition, % at 57.5 µM | hit rate 0.59% among 350,000 | HEK293-RXFP1, relaxin-stimulated cAMP HTRF, 30 min; hits give low values | Q9HBX9;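 active = activity change of -60% or lower, but not beyond a set lower limit; inconclusive = change between -60% and -40%, or beyond the set limit; inactive = change above -40%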
miR-21 FLuc = raises the signal of a miR-21 reporter | AID 2288 | 340,000 tested, under 10 active | Potency, µM (series often up to 38.3 µM) | HeLa miR-21 FLuc reporter, luciferase, 48 h; active = well fitted rising curve with a large enough effect; inconclusive = small, poorly fitted or top-dose-only effect; inactive = no such curve, though single readings can be large or run the other way;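 further: miR-21 action dims this reporter so a rising signal means less miR-21 action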
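HeLa cells stably expressing CMV-driven firefly luciferase with a downstream miR-21 binding sequence, endogenously expressing miR-21, were treated with titrations (up to about 40uM final) for 48 hours at 37 degree Celsius. Luciferase luminescence was read after lysis.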
TCR activator = T cell receptor activation; 330,000 tested, under 10 active; primary human leukocytes, anti-CD3, IL-2 HTRF, 48 h; Potency, µM (titrated, usually from 9.22 µM), most hits filed as activators
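HTRF read-out of IL-2 secretion: europium cryptate donor excited at 320nm, d2 acceptor emission at 665nm. Cells were primary human leukocytes incubated 48 hr with compounds and a-CD3 beads, supplying TCR signal only.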
RXFP1 agonist = RXFP1 (human) receptor agonism | Q9HBX9 | Potency, µM (series often up to 57.5 µM), actives largely listed as activators | hit rate 0.3% among 370,000 | HEK293T-RXFP1 cAMP TR-FRET, 30 min; response scale: percent of porcine relaxin response, buffer zero; note: nearly all actives have a fitted effect of over 60% in size
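HEK293 cells stably expressing RXFP1, treated 30 min at 37C with compounds plus PDE4 inhibitor Ro 20174; cAMP measured by HTRF TR-FRET. Normalized to buffer and 29 nM porcine relaxin; EC50 by Hill fit.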
PINK1 expr mod = modulators of PINK1 expression; Potency, µM (titrated, usually from 76.6 µM), hits mostly activators; PINK1 immunofluorescence, high-content cytometry, 24 h; hit rate 0.2% among 410,000; active = well fitted activation curve with a large enough effect; inconclusive = small, poorly fitted or top-dose-only effect; cell line not stated here; note: nearly all actives have a fitted effect of over 65% in size
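Measures PINK1 amount and localization on or inside mitochondria by immunofluorescence. Stable cells get compounds at 5 concentrations for 24 hours before fixation and staining; CCCP controls included.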
Numbers stand for hits; n = inactive; u = inconclusive; x = not tested or not shown. Unless noted, calls come from the whole dose curve; as a rule, active = well fitted curve in the direction sought with a large enough effect; inconclusive = small, poorly fitted or top-dose-only effect, or another doubt; inactive = no such curve, though single readings can be large; an effect the other way counts as inactive or inconclusive.

SMILES | IL-2 act | RXFP1 antagonist | miR-21 FLuc | TCR activator | RXFP1 agonist | PINK1 expr mod
CN1/C(=C/c2cccc[n+]2CCO)Sc2ccccc21 | n | n | n | x | n | n
Cc1cc(/C=N/NC(N)=S)c(C)n1-c1ccc(Cl)c(Cl)c1 | n | -105.0 | u | n | n | n
COCc1ccc(CN2Cc3ccccc3OC(c3ccccc3F)C2)o1 (stereo not given) | x | x | x | x | x | n
Cc1ccc(C(C)C)c(OCC(=O)Nc2nc3c(s2)CCCC3)c1 | x | -85.0 | n | x | n | n
O=C(Nc1nc2c(s1)CCCC2)c1ccc2ncsc2c1 | n | x | n | n | n | n
COc1ccc(C(=O)Nc2nc3c(s2)CCCC3)cc1Cl | x | -70.9 | n | x | n | n
Cc1cccc(C(=O)Nc2nc3c(s2)CCCC3)c1 | x | -86.9 | n | x | n | n
Cc1cc(C(=O)Nc2nc3c(s2)CCCC3)cs1 | n | n | n | x | n | u
COc1ccc(CN2CCC3(CC2)c2ccccc2[C@@H](NC(=O)c2ccccc2OC)[C@@H]3O)cc1O | x | x | x | x | x | n
O=C(Nc1ccccc1)N1CCc2c([nH]c3ccccc23)C1C(F)(F)F (stereo not given) | n | n | n | n | n | n
COc1cccc(Cl)c1NC(=O)N1CCc2c([nH]c3ccccc23)C1C(F)(F)F (stereo not given) | n | -74.7 | n | n | n | u
CC(NC(=O)/C(=C/c1ccc(OC(F)F)cc1)c1ccccc1)c1ccccc1 (stereo not given) | n | n | n | n | n | 44.7µM
CC(NC(=O)/C(C#N)=C/c1ccc(OCC(=O)O)cc1)c1ccccc1 (stereo not given) | n | n | n | x | n | n
O=C(NCC1Cc2cc(-c3cnc4ccccc4c3)cc(F)c2O1)c1cnsn1 (stereo not given) | x | x | x | x | x | n
Cc1nc(C2CCCCC2)c(-c2ccc(S(N)(=O)=O)c(F)c2)o1 | x | n | x | x | x | x
CCOC(=O)C(=O)N(Nc1ccc(C)cc1)c1ccc(C)cc1 | n | -68.3 | n | n | n | n
CCC(O)(CC)C(=O)N(Nc1ccc(C)cc1)c1ccc(C)cc1 | n | n | n | n | n | n
CC(NC(=O)c1cc(F)ccc1F)c1nnc2n1CCN(Cc1ccc(-c3ccccc3)cc1)CC2 (stereo not given) | x | x | x | x | x | n
O=C(COC(=O)c1n[nH]c2ccccc12)Nc1ccc(Cl)cc1[N+](=O)[O-] | n | -75.3 | n | n | n | n
COc1cc([N+](=O)[O-])ccc1NC(=O)COC(=O)c1n[nH]c2ccccc12 | n | n | n | n | n | n
COc1ccccc1C1CN(CCNC(=O)[C@@H]2CSC(=O)N2)Cc2ccccc2O1 (stereo not given in full) | x | x | x | x | x | n
CC(=O)Oc1c(I)cc(I)cc1C(=O)Nc1ccc(Cl)cc1 | n | -96.5 | u | x | n | u
COC(=O)[C@H]1[C@H]2C[C@@H]3c4[nH]c5cc(OC)ccc5c4CCN3C[C@H]2C[C@@H](OC(=O)/C=C/c2ccc(O)c(OC)c2)[C@@H]1OC | x | n | x | x | x | x
CSc1ccc(CCNC(=O)CCc2nnc3ccc(NCCCN4CCCC4=O)nn23)cc1 | n | -69.9 | n | n | u | n
Cc1ccc(CNC(=O)CCc2nnc3ccc(NCCCN4CCCC4=O)nn23)cc1 | n | n | n | n | u | n
SMILES | IL-2 act | RXFP1 antagonist | miR-21 FLuc | TCR activator | RXFP1 agonist | PINK1 expr mod
COc1ccc(/C=C2\SC(=O)N(CCC(=O)Nc3ccccc3)C2=O)cc1OC | n | n | n | n | n | n
COc1cc(/C=C2\SC(=O)N(CCN)C2=O)ccc1OS(=O)(=O)c1cc(C)ccc1C | n | -72.4 | n | n | n | n
C=CCNC(=O)CC1C(=O)NCCN1Cc1ccc(-c2ccccc2)cc1 (stereo not given) | n | n | n | n | n | n
O=C(CC1C(=O)NCCN1Cc1ccc(-c2ccccc2)cc1)NCC1CC1 (stereo not given) | n | -61.3 | n | n | n | n
CC(C)(O)C#Cc1ccc(CN2CCc3nnc(CCNC(=O)c4ccco4)n3CC2)cc1 | x | x | x | x | x | n
Nc1ccccc1-c1n[nH]c(=S)s1 | n | n | n | n | 28.2µM | n
CC(O)CNCCCOc1ccc(Cl)cc1C(C)(C)C (stereo not given) | n | -61.5 | n | n | n | n
CCC1(C)CC2(CCCN(CCC(O)(c3ccccc3)c3ccccc3)C2)CCO1 (stereo not given) | n | n | n | n | n | 44.7µM
Cc1cc(OCc2ccccc2)ccc1/C(O)=C1/C(=O)C(=O)N(Cc2cccnc2)C1c1ccncc1 (stereo not given) | n | n | n | n | 25.1µM | n
COc1ccc(/C(O)=C2/C(=O)C(=O)N(Cc3cccnc3)C2c2ccncc2)cc1F (stereo not given) | n | n | n | n | n | n
Cc1ccc2c(Cl)cc(Cl)c(O)c2n1 | n | n | x | n | x | n
Cc1ccc2c(C)ccc(O)c2n1 | n | -70.4 | n | n | n | n
NCCCC(N)CC(=O)NCC1NC(=O)C(CO)NC(=O)C(N)CNC(=O)C(C2CCN=C(N)N2)NC(=O)C(=CNC(N)=O)NC1=O (stereo not given) | x | n | x | x | x | x
O=c1nc2ccccn2c2ccc(S(=O)(=O)N3CCCCC3)cc12 | n | n | n | n | 20µM | n
CCCCCCCCCCCCCCC(O)C[N+](C)(CCO)CCO (stereo not given) | n | -60.8 | x | n | x | n
CCn1c(-c2cccc(OC)c2)nc2cc(NC(C)=O)cc(C(=O)N(C)CC3COCCO3)c21 (stereo not given) | x | x | x | x | x | n
CCN(CC)c1ccc2nc3ccc(N)cc3[n+](-c3ccccc3)c2c1 | n | u | x | n | n | 10µM
CCN(CC)c1ccc2nc3ccccc3[n+](CC)c2c1 | n | u | u | n | n | n
CC1CN(CCC(=O)N2CCCC(C(=O)c3nccn3C)C2)Cc2cc(Cl)ccc2O1 (stereo not given) | x | x | x | x | x | n
COc1cc(=O)n2c(c1C(=O)N(C)Cc1cscn1)CCN(C(=O)c1cccc(C)c1C)CC2 | x | x | x | x | x | n
Cc1oc(=O)oc1COC(=O)[C@@H]1N2C(=O)[C@@H](NC(=O)[C@H](N)c3ccccc3)[C@H]2SC1(C)C | x | n | x | x | x | x
CCCCOc1ccc(-c2c(C(=O)Nc3ccccc3)c(C)[nH]c(=S)c2C#N)cc1 | n | n | n | x | 22.4µM | n
CCOC(=O)c1c(C)[nH]c(=S)c(C#N)c1-c1ccc(OC)cc1 | n | n | n | n | n | n
COc1ccc(OC)c(-c2ccc(O)c(CN3CCc4c([nH]c5ccccc45)C3)c2)c1 | x | x | x | x | x | n
Cc1ccc(OCC(=O)N(Cc2ccco2)Cc2ccco2)cc1C | x | -60.4 | n | x | n | n
Cc1cc(OC(C)C(=O)N(Cc2ccco2)Cc2ccco2)cc(C)c1Cl (stereo not given) | x | -88.4 | n | x | n | n
